Reference: patent US20060234237A1 (priority 2004, published 2006)

System: Colon cancer and a lung cancer cell lines
Experiment: Modulation of biomarker expression by treatment with ligands for EGFR or inhibitors for EGFR (cell line not stated)
Type: cell-based, human
Settings: treatment with EGFR inhibitor; 10% serum; 6 and 24 hours; two fold criterion vs untreated control

For cetuximab [C225], the “Expression of spondin 1, talin 2 and nuclear receptor subfamily 3” value was “consistently down regulated”.
